Bioassay records (PubChem)
miR-21 reporter: raises the signal of a miR-21 reporter; AID 2288; 340,000 tested, under 10 active; Potency, µM (doses to about 38.3 µM); HeLa miR-21 FLuc reporter, luciferase, 48 h; active = well fitted rising curve with a large enough effect; inconclusive = small, poorly fitted or top-dose-only effect; inactive = no such curve, though single readings can be large or run the other way;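 note: miR-21 action dims this reporter so a rising signal means less miR-21 action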
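HeLa cells stably expressing CMV-driven firefly luciferase with a downstream miR-21 binding sequence, endogenously expressing miR-21, were treated with titrations (up to about 40uM final) for 48 hours at 37 degree Celsius. Luciferase luminescence was read after lysis.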
Giardia killer: kills Giardia lamblia; activity change, % at 7.66 µM, hits read low; Giardia lamblia trophozoite viability; 340,000 tested, 0.15% active; in the data active = activity change below about -80%; inconclusive = between about -30% and that limit;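 also: parasites exposed to compound for two days anaerobically before the ATP read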
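Killing of trophozoites was scored by loss of ATP luminescence after a 48 hrs anaerobic exposure to compounds at 37 deg C, using 100 cells per well.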
PTHR1 agonist: PTHR1 (human) receptor agonism; HEK293 GP2 PTHR1 cells, GloSensor cAMP luminescence, 1 h; Potency, µM (highest dose often 115 µM), actives largely listed as activators; 410,000 tested, 0.075% active; AID 743266; also: nearly all actives have a fitted effect of over 55% in size
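HEK-293-derived GP2 cells expressing PTHR1 and a GloSensor cAMP reporter, 3,000/well, plated overnight, given luciferin plus IBMX (each 0.5 mM as added) for 1 h at 37 °C, then compound for 1 h at 37 °C. Luminescence was read after 15 min at room temperature.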
ERG Ets-DNA blk: inhibitors of human ERG Ets domain-DNA interaction; P11308; AID 624246; fluorescence polarization, His-ERG Ets domain / labelled DNA; 370,000 tested, 0.028% active; Potency, µM (top dose mostly 76.9 µM), most hits filed as inhibitors; active = well fitted inhibition curve with a large enough effect in the polarisation, with a control signal flat; inconclusive = small, poorly fitted or top-dose-only effect, or effect the other way, or a change in a side signal; inactive = no such curve, though single readings can be large or run the other way; the % refers to the polarisation;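 also: polarization taken with two DNA probes labelled with fluorescein and Texas red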
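His-tagged ERG Ets domain (1 uM in the protein solution; 300mM KCl, 50mM Tris-HCl, 1mM EDTA, 1mM DTT, pH 7.5) received compound, then a probe mix of 5 nM fluorescein-DNA and 100nM Texas-615-DNA. Fluorescence polarization was read for both dyes.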
PINK1 modulator: modulators of PINK1 expression; 410,000 tested, 0.2% active; AID 624263; Potency, µM (top dose mostly 76.6 µM), actives largely listed as activators; PINK1 immunofluorescence, high-content cytometry, 24 h; active = well fitted activation curve with a large enough effect; inconclusive = small, poorly fitted or top-dose-only effect; cell line not stated here; also: nearly all actives have a fitted effect of over 65% in size
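Fluorescence from anti-PINK1 antibody, together with nuclear and cell stains, was scanned on a laser-scanning cytometer. Before staining, stable-line cells were incubated 24 hours with compounds at 5 concentrations; primary antibody 12 h at 10 degrees C.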
ALOX12 inh: inhibitors of human 12S-lipoxygenase ALOX12 | 580,000 tested, 1.1% active | purified 12hLO, xylenol orange hydroperoxide absorbance | Potency, µM (series often up to 108 µM), usual class: inhibitors | AID 1671190 | P18054
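Purified human 12hLO at 150 nM in 25 mM Hepes, 0.01% Triton X-100, pH 7.0, preincubated 15 min at room temperature with compound. Reaction started with 40 uM arachidonic acid, 30 min at room temperature. Hydroperoxide measured by Fe-xylenol orange, 573/405 nm absorbance ratio.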
Hits are given with their value; . = inactive; ? = inconclusive; / = no result given; ! = repeats disagree. A selection: hits, their analogues and other compounds. The true share with any hit is near 1.3%. Unless noted, calls follow the shape of the dose curve; as a rule, active = well fitted curve in the direction sought with a large enough effect; inconclusive = small, poorly fitted or top-dose-only effect, or another doubt; inactive = no such curve, though single readings can be large; an effect the other way counts as inactive or inconclusive.

SMILES | miR-21 reporter | Giardia killer | PTHR1 agonist | ERG Ets-DNA blk | PINK1 modulator | ALOX12 inh
Cc1ccc(/C=C(\NC(=O)c2ccc(C)cc2)c2nc(=S)[nH][nH]2)cc1 | . | . | . | . | . | 20µM
Cc1ccc(C(=O)N/C(=C\c2ccccc2F)c2nc(=S)[nH][nH]2)cc1 | . | . | . | . | . | ?
CSCCC(NS(=O)(=O)c1cccs1)C(=O)Nc1ccc(C)c(Cl)c1 (stereo not given) | . | / | . | . | . | 50µM
CC1(C(=O)Nc2cccc3c2CCCC3)CCN1C(=O)C1(c2ccc(Cl)cc2)CC1 (stereo not given) | / | / | . | / | . | .
Cc1nn(C)c(C)c1CNCc1ccnc(N2CCOCC2)c1 | / | / | / | / | / | 11µM
COc1ccccc1C(NC(=O)C1CCN(CCc2ccc(Br)cc2)CC1)c1ccccn1 (stereo not given) | / | / | . | / | . | 40µM
C[n+]1cc(C(=O)N2CCCCC2)ccc1/C=C/c1c[nH]c2ccccc12 | . | . | . | . | . | 20µM
O=C(C(=O)N1CCCCCC1)c1c[nH]c2ccccc12 | . | . | . | . | . | .
N#CC1=C(N)NC(=S)C(C(N)=O)C1c1ccc([N+](=O)[O-])cc1 (stereo not given) | . | . | . | . | . | 45µM
O=C1NC(C(=O)O)=CC(c2ccc([N+](=O)[O-])cc2)N1 (stereo not given) | . | . | . | . | . | ?
COc1cc(/C=C(/C#N)c2nc3ccccc3[nH]2)ccc1OC(C)C | / | / | / | / | / | .
N#C/C(=C\c1ccc(-c2ccc(F)cc2F)o1)c1nc2ccccc2[nH]1 | . | / | . | ? | . | .
COc1cc(/C=C(/C#N)c2nc3ccccc3[nH]2)ccc1Oc1ncccc1[N+](=O)[O-] | . | . | . | . | 7.9µM | .
N#C/C(=C/c1ccc(O)c(O)c1)c1nc2ccccc2[nH]1 | . | . | . | . | . | 7.9µM
N#C/C(=C\c1ccc(-c2ccc(Cl)cc2Cl)o1)c1nc2ccccc2[nH]1 | / | / | / | / | / | 11µM
COc1ccc2nc(/C(C#N)=C\c3ccc(Oc4ccc([N+](=O)[O-])cn4)cc3)[nH]c2c1 | . | . | . | . | 11µM | .
Cc1ccc(-c2nnc(Nc3cccc(O)c3)c3ccccc23)cc1S(=O)(=O)N1CCN(C)CC1 | . | / | . | . | . | .
CCc1ccccc1NC(=O)Cn1nnc(C(=O)OC)c1C(=O)OC | . | / | . | . | . | .
N#Cc1ccc(C(=O)/C=C/c2cc3ccccc3nc2N2CCOCC2)cc1 | / | / | / | / | / | 11µM
Cc1cc(Br)cc2c1N(Cc1ccccc1OC(C)C)C(=O)C2=O | ? | / | . | . | . | 4.5µM!
Cc1cccc2c1N(Cc1ccccc1OC(C)C)C(=O)C2=O | / | / | / | / | / | .
CCOc1ccc2nc(N/C(N)=N/C(=S)Nc3ccc(C)c(C)c3)nc(C)c2c1 | . | . | . | . | . | 45µM
COc1ccc(NC(=S)/N=C(\N)Nc2nc(C)c3ccc(C)cc3n2)cc1 | . | . | . | . | . | ?
COc1ccc(OCCN2CCC(C(=O)NC(c3ccc(Cl)cc3)c3cccnc3)CC2)cc1 (stereo not given) | / | / | . | / | . | .
CC(NC(=O)C1CCN(CCOc2ccc(Cl)cc2)CC1)c1cccc2ccccc12 (stereo not given) | / | / | ? | / | . | 22µM
SMILES | miR-21 reporter | Giardia killer | PTHR1 agonist | ERG Ets-DNA blk | PINK1 modulator | ALOX12 inh
O=C(NC(c1ccc(Cl)cc1)c1ccsc1)C1CCN(CCOc2ccc(Cl)cc2)CC1 (stereo not given) | / | / | . | / | . | 32µM
CCOC(=O)C1=CCN(S(=O)(=O)c2ccccc2Br)C1c1ccc(C)cc1 (stereo not given) | / | / | . | / | . | .
CC1CC(C)(C)CC2(C1)NC(=O)N(CC(=O)Nc1cc(C(F)(F)F)ccc1N1CCCCC1)C2=O (stereo not given) | / | . | . | . | . | .
COc1ccc2cnn(CC(=O)N3CCN(c4cccc(Cl)c4)CC3)c(=O)c2c1OC | / | / | / | / | / | .
COc1ccc(C2CC(c3cccc(F)c3)=NN2c2ccc(S(N)(=O)=O)cc2)cc1 (stereo not given) | / | . | . | . | . | 32µM
COc1ccc(C=O)c(OCc2cn(CC(=O)c3ccc(O)cc3)nn2)c1 | / | . | . | . | . | 1.3µM
O=Cc1cccc(OCc2cn(CC(=O)c3ccc(O)cc3)nn2)c1 | / | / | . | / | . | ?
CC1CN(Cc2ccc(Cl)cc2Cl)CC(C)O1 (stereo not given) | . | . | . | . | . | 0.63µM
O=C(Nc1cccc2ncccc12)c1ccc([N+](=O)[O-])o1 | . | -80 | . | . | . | .
O=C(Nc1ccc2c(c1)OCCO2)c1cc2cc(Br)ccc2[nH]1 | / | / | / | / | / | 14µM
O=C(Nc1ccc2c(c1)OCCO2)c1ccco1 | . | . | . | . | 11µM | .
O=C(NC12CC3CC(CC(C3)C1)C2)c1ccc([N+](=O)[O-])o1 | . | -93 | ? | . | . | .
O=C(Nc1cccc(NC(=O)c2ccco2)c1)c1ccc2c(c1)OCCO2 | . | . | . | . | . | .
Cc1cccnc1NC(=O)c1ccc([N+](=O)[O-])o1 | . | ? | . | . | . | .
NC(COCc1ccccc1)c1csc(Nc2cc(NCCCO)ncn2)n1 (stereo not given) | / | / | . | / | . | .
CC(=O)Nc1cccc(NC(=O)c2ccco2)c1 | . | . | . | . | / | .
Cc1c(NC(=O)c2ccc([N+](=O)[O-])o2)cccc1-c1nc2ncccc2o1 | . | -92 | . | . | . | .
O=C(Nc1ccc(NC(=O)c2ccc([N+](=O)[O-])o2)cc1Cl)c1ccco1 | . | -92 | . | . | . | .
O=C(Nc1ccccc1Cl)c1ccc([N+](=O)[O-])o1 | . | -83 | . | . | . | ?
O=C(Nc1cccc(NC(=O)c2ccc([N+](=O)[O-])o2)c1)c1ccco1 | ? | -85 | . | . | . | .
CCN(c1ccccc1)S(=O)(=O)c1cc2c3c(c1)C(C)C(=O)N3CCC2 (stereo not given) | . | . | . | . | . | ?
CC[C@]12c3[nH]c4ccc(Cl)cc4c3CCN1C(=O)[C@@H](CC(=O)NCCC1=CCCCC1)C[C@@H]2C(=O)N1CCN(C(=O)c2ccco2)CC1 | / | . | . | . | . | 25µM
CC[C@]12c3[nH]c4ccc(Cl)cc4c3CCN1C(=O)[C@@H](CC(=O)NCCN1CCOCC1)C[C@@H]2C(=O)N1CCN(C(=O)c2ccco2)CC1 | / | ? | . | . | . | .
CCCCC1=CC2=CC(=O)C(C)(OC(=O)c3cccs3)C(=O)C2=CO1 (stereo not given) | / | ? | . | . | . | 28µM
